The source of these data is patent publication US11407788B2, “Prostate-specific membrane antigen (PSMA) targeting peptides” (THE CURATORS OF THE UNIVERSITY OF MISSOURI, priority 2016, dated 2022).

This data set concerns C4-2 xenograft tumor. Briefly: Biodistribution study in mice bearing C4-2 xenografts. It counts as in vivo, nude mice. The text has this:
The animal protocol was approved by the University of Missouri-Kansas City, Institutional Animal Care and Use Committee (IACUC). The C4-2 xenograft tumor model was developed by subcutaneous injection of 1×10^6 C4-2 cells with matrigel into each flank of BALB/c nude male mice aged 5-6 weeks. […] After two hours, the mice were sacrificed, and major organs including the tumors, liver, heart, spleen, lungs, kidneys, and muscle were harvested. Fluorescence intensity of these organs was examined using a Xenogen IVIS imaging system (Xenogen, Hopkinton, Mass.).
It has been reported that peptide achieves its highest uptake in tissues 2 h post-administration (Chen, x., et al., Cancer Res., 2004, 64(21):8009-8014), therefore the mice were sacrificed at 2 h post-administration and major organs harvested including the tumor, liver, kidneys, muscle, heart, lungs, and spleen. […] Uptake of the GTI peptide in other organs, such as the heart, lungs and muscle is negligible.

For `CC[C@H](C)[C@H](NC(=O)[C@@H](NC(=O)CN)[C@@H](C)O)C(=O)N[C@@H](CCC(N)=O)C(=O)N1CCC[C@H]1C(=O)N[C@@H](Cc1ccc(O)cc1)C(=O)N1CCC[C@H]1C(=O)N[C@@H](Cc1ccccc1)C(=O)N[C@@H](CO)C(=O)N[C@@H](Cc1c[nH]c2ccccc12)C(=O)NCC(=O)N[C@@H](Cc1ccc(O)cc1)C(=O)O` [GTI], the “uptake in other major organs, such as the liver and spleen” value was “either low or negligible”.
